Laboratory results published in patent US7910102B2 (priority 2006, dated 2011).

Amino acid sequences for entries named in this document (tags omitted).
UniProt P22001, whole entry: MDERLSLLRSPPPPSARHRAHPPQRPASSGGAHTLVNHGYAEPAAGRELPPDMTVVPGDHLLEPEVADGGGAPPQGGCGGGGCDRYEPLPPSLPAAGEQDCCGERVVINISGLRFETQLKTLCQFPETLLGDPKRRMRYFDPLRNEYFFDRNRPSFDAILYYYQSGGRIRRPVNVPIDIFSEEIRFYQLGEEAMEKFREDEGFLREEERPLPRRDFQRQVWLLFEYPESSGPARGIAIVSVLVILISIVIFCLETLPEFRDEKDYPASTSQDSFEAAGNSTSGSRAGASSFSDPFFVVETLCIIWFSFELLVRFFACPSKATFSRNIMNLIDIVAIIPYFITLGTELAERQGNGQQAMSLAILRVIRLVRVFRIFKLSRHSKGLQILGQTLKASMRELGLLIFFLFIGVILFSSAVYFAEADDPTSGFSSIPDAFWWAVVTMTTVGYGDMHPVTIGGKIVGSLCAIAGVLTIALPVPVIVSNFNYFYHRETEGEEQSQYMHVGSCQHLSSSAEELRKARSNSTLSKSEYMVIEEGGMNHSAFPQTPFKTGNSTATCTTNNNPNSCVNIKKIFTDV

Target: human Kv1.3 (Homo sapiens, UniProt P22001)
Type: cell-based
Parameters: expressed in transfected cells

CC[C@H](C)[C@@H]1NC(=O)[C@H](CCCCN)NC(=O)[C@@H](NC(=O)[C@H](CCCCN)NC(=O)[C@@H](NC(=O)[C@H](CC(N)=O)NC(=O)[C@@H](NC(=O)[C@@H](NC(=O)[C@@H](NC(=O)CN)C(C)C)[C@@H](C)CC)[C@@H](C)CC)C(C)C)CSSC[C@@H]2NC(=O)[C@H](CCCCN)NC(=O)CNC(=O)[C@H](Cc3ccccc3)NC(=O)[C@H](CCCNC(=N)N)NC(=O)[C@H](CCSC)NC(=O)CNC(=O)[C@H](C)NC(=O)[C@H](CCCCN)NC(=O)[C@H](CCCCN)NC(=O)[C@@H]3CSSC[C@@H](C(=O)N[C@H](C(=O)N4CCC[C@H]4C(=O)N[C@@H](CCCCN)C(=O)O)[C@@H](C)O)NC(=O)[C@H](Cc4c[nH]cn4)NC(=O)[C@H](CSSC[C@H](NC(=O)[C@H](CCC(N)=O)NC(=O)[C@H](CCCNC(=N)N)NC(=O)[C@H](CO)NC1=O)C(=O)N[C@@H](CC(C)C)C(=O)N[C@@H](CCC(=O)O)C(=O)N1CCC[C@H]1C(=O)N3)NC(=O)[C@H](CCCCN)NC(=O)CNC(=O)[C@H](CC(N)=O)NC(=O)[C@H](CCSC)NC2=O [OSK1]
Kv1.1 IC50 relative to Kv1.3 IC50: 5 fold
